Test results published in EP4585599A1, “NITROGEN-CONTAINING FUSED RING COMPOUND, INTERMEDIATE THEREOF, PREPARATION METHOD THEREFOR AND USE THEREOF” (Hangzhou Synrx Therapeutics Biomedical Technology Co., Ltd., priority 2022, dated 2024).

By UniProt entry, the sequences of proteins in these tests, tags left out. Residues count along the entry.
UniProt O75417, 102-554 limits assumed: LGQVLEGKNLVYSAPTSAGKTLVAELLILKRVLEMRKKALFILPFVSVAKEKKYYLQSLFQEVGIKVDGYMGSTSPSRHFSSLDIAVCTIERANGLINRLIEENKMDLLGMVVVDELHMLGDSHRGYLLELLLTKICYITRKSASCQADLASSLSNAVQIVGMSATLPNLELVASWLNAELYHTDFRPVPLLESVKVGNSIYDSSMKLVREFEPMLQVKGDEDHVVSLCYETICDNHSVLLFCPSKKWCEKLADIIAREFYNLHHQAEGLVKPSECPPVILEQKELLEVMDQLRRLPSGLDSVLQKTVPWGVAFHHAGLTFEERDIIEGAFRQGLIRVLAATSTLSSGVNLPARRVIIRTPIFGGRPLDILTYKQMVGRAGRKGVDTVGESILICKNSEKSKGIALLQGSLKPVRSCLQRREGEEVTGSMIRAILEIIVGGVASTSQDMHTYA

Molecular target: helicase domain of the Pol θ protein (Homo sapiens, UniProt O75417)
Assay: Biochemical Activity Assay (ADP Glo Assay) of Pol θ inhibitor, ATPase activity
Details: read-out: Biochemical assay IC50, ssDNA substrate, tested form: free base

Row | Compound | IC50 [nM]
1 | COc1cnc(Cl)cc1-c1cc(C)ncc1C(=O)Nc1nc2ccc(N3[C@@H]4CC[C@H]3C[C@H](O)C4)nc2s1 | 46.4
2 | COc1cnc(Cl)cc1-c1cc(C)ncc1C(=O)Nc1nc2ccc(N3[C@@H]4CC[C@H]3C[C@@H](O)C4)nc2s1 | 49.4
